Results: PubChem BioAssay AID1745857 (National Center for Advancing Translational Sciences (NCATS), 2022)
The list shows a part of the results, in another mix than the full data. Results filed as inconclusive are left out. Active and inactive are the calls of the source. The call rests on the fitted dose curve.

experiment: Primary qHTS Assay for Foot and Mouth Disease Virus Antivirals against NCGC Sytravon and CBC Compound Libraries: Renilla Luciferase Signal; details: FMDV replicon cells; at 114 µM (top of the series) unless noted; further: nearly all actives have a fitted effect of over 55% in size
On the % scale 0 is the no-effect control and ±100 the full control effect.

| Structure (SMILES) | activity change, negative = inhibition |
| --- | --- |
| CN(CCCl)CCCl | inactive: -6.13% [at 57.5 µM] |
| CCC(=O)N(c1ccccc1)C1(COC)CCN(CCc2cccs2)CC1 | inactive: 1.56% |
| CCC(=O)N(c1ccccc1)C1(COC)CCN(CCn2nnn(CC)c2=O)CC1 | inactive: -4.7% |
